Earlier results as cited in patent publication US5321030A, “Creatine analogs having antiviral activity” (priority 1991, dated 1994).

Amino acid sequences for entries named in this document (tags omitted). A change or cut given only in a name is not applied to a line headed by its entry.
UniProt P00563: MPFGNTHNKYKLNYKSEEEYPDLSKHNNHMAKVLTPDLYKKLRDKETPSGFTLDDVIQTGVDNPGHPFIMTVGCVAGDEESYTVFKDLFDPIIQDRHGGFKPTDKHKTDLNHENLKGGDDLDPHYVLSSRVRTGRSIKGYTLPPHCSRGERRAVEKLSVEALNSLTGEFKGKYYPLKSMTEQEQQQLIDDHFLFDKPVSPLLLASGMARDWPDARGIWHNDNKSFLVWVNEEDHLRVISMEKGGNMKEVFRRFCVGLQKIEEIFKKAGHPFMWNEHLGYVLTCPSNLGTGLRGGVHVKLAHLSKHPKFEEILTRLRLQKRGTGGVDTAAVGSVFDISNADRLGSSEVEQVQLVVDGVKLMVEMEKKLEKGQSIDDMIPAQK

Molecular target: creatine kinase (Oryctolagus cuniculus, UniProt P00563)
Conditions: pH 7 (37° C.), reverse reaction; cited from earlier work

SMILES: N=C1N(CC(=O)O)CCN1P(=O)(O)O
- Vmax/Km ratio, fold lower than for P-creatine: approximately 160 fold
